{"source": "patent US20110070232A1", "about": "“Combination Therapy with an Antitumor Alkaloid” (Pharma Mar, S.A., priority 2008, published 2011)", "tested_on": "PLC/PRF/5 tumors", "format": "in vivo, mice", "settings": "day 35; PM00104 0.90, sorafenib 60 mg/kg/day", "description": "Female athymic nude mice (Harlan Sprague Dawley, Madison, Wis.) were utilized for all experiments. Animals were housed in ventilated rack caging with food and water ad libitum. The mice were acclimated for at least 5 days prior to tumor implantation with a tumor cell suspension.\nThe tumor model used in these studies was PLC/PRF/5 cell line, which was obtained from the ATCC (Manassas, Va.).\nPLC/PRF/5 were grown in Eagle's minimum essential medium supplemented with 10% FBS and 1% L-glutamine. Each animal was implanted SC on the right flank, using a 13G trochar and 1 mL syringe, with 5×10^6 PLC/PRF/5 cells in a 0.2 mL suspension of 50% Matrigel and 50% serum free MEM medium, without antibiotics. Bacterial cultures were performed on aliquots of the cells prepared for implantation.\nTreatments were initiated on DPI 14.\nTumor size measurements were recorded twice weekly from the treatment initiation until the termination of the study.\nMean, standard deviation and standard error of the mean were determined for tumor volume for all animal groups at all assessments. Student's t test was performed on tumor volumes at each measurement day, including at the end of the study, to determine whether there were any statistically significant differences between combination treatment groups and single monotherapy treatment groups.", "data": [{"smiles": "CNC(=O)c1cc(Oc2ccc(NC(=O)Nc3ccc(Cl)c(C(F)(F)F)c3)cc2)ccn1", "note": "[sorafenib]", "values": [{"measurement": "% Inhibition", "value": 63.5, "unit": "%"}]}]}
